This passage reports observed toxicity results from paper PMC8812549 (Journal of medicinal chemistry, 2021).

The conditions of the data set: mice, 1 mg/kg, course of the study.

Consider `Cc1ccc([C@H]2C[C@H](N(Cc3ccc(Br)c(Cl)c3)C3CCNCC3)C2)cc1` [77b], for which the observed toxicity result is “no observed toxicity”.
